# The other results are listed elsewhere or left out. Only a part of the results of these assays is listed, not drawn at random. Activity calls are given as the source filed them. The rule behind the calls is not given here.
# Biological target: T1, Transcriptional regulator ERG (Homo sapiens) (UniProt P11308)
# T1 sequence (whole entry): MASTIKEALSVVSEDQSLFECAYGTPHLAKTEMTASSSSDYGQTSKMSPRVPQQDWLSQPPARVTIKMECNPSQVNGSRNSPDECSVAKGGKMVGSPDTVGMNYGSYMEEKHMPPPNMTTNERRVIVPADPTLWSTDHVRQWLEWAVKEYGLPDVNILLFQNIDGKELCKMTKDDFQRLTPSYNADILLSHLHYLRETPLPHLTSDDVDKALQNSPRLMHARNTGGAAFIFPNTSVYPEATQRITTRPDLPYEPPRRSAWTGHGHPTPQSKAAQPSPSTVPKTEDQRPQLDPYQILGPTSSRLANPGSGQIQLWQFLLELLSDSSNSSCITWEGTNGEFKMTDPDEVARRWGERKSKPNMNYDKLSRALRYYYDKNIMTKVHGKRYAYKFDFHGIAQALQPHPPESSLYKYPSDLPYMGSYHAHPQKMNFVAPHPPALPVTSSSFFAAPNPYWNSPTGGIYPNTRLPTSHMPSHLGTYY
# Assay: qHTS for Small Molecule Inhibitors of the ERG Ets/DNA interaction.
# Assay type: functional
row,Compound,Potency
1,O=C(O)/C=C\C(=O)O,inactive

# From ChEMBL document CHEMBL1201862, “PubChem BioAssay data set” (2004)
